In ChEMBL document CHEMBL4823324, “Discovery of BMS-986318, a Potent Nonbile Acid FXR Agonist for the Treatment of Nonalcoholic Steatohepatitis” (ACS Med Chem Lett, 2021) one finds inhibition data, which are given here for three molecules.

For orientation: inhibition means the change of the read-out against control, counted positive when it falls. The low end stands for a weak effect, the high end for a strong effect.

The target of the assay is T1, Bile acid receptor (Mus musculus) (UniProt Q60641).
T1 sequence (whole entry): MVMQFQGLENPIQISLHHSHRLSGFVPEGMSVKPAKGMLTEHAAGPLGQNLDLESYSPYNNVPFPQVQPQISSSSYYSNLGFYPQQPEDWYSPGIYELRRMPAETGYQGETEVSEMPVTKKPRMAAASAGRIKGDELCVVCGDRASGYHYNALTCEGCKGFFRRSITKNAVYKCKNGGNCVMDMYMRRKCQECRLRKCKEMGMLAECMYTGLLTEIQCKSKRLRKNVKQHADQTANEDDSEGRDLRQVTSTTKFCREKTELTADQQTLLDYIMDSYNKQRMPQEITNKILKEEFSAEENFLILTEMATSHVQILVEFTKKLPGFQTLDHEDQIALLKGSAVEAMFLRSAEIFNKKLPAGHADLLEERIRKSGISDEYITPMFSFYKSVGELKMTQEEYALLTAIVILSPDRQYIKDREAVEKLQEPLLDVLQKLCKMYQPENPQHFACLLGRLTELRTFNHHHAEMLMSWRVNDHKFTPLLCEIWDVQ
As to conditions: C57BL6/NTac, dose 3.0 mg/kg, time 6.0 hrs.
As to `O=C(O)c1cc(F)c2nc(N3CCC(/C=C/c4c(-c5c(Cl)cccc5Cl)noc4C4CC4)CC3)sc2c1`, the inhibition came out at 96%.

In turn, `O=C(O)c1cc(C(F)(F)F)c2cc(N3CCC4(C=C(c5c(-c6c(Cl)cncc6Cl)noc5C5CC5)C4)CC3)ccc2n1` came in with an inhibition of 94%.

Turning to `O=C(O)c1cc(F)c2nc(N3CCC4(C=C(c5c(-c6c(Cl)cccc6Cl)noc5C5CC5)C4)CC3)sc2c1`, the inhibition was determined as 99%.
